From ChEMBL document CHEMBL1629679, “Extended-spectrum cephalosporinases in Pseudomonas aeruginosa” (2009)

What was measured:
[1] = system: Pseudomonas aeruginosa; experiment: Activity at Pseudomonas aeruginosa PDC-2 by spectrophotometer
[2] = system: Pseudomonas aeruginosa; experiment: Activity at Pseudomonas aeruginosa PDC-3 by spectrophotometer
[3] = system: Pseudomonas aeruginosa; experiment: Ratio of Kcat to Km for Pseudomonas aeruginosa PDC-2 by spectrophotometer
[4] = system: Pseudomonas aeruginosa; experiment: Ratio of Kcat to Km for Pseudomonas aeruginosa PDC-3 by spectrophotometer

CO[C@@]1(NC(=O)Cc2cccs2)C(=O)N2C(C(=O)O)=C(COC(N)=O)CS[C@@H]21
Km [1]: 0.5 µM
kcat [1]: 0.08 s⁻¹
Km [2]: 0.5 µM
kcat [2]: 0.5 s⁻¹
kcat/Km [3]: 160000 M⁻¹ s⁻¹
kcat/Km [4]: 200000 M⁻¹ s⁻¹

CC(=O)OCC1=C(C(=O)O)N2C(=O)[C@@H](NC(=O)Cc3cccs3)[C@H]2SC1
Km [1]: 50 µM
kcat [1]: 110 s⁻¹
Km [2]: 45 µM
kcat [2]: 120 s⁻¹
kcat/Km [3]: 2.2e+06 M⁻¹ s⁻¹
kcat/Km [4]: 2.75e+06 M⁻¹ s⁻¹

CC1(C)S[C@@H]2[C@H](NC(=O)[C@H](N)c3ccc(O)cc3)C(=O)N2[C@H]1C(=O)O
Km [1]: 30 µM
kcat [1]: 2 s⁻¹
Km [2]: 25 µM
kcat [2]: 2.5 s⁻¹
kcat/Km [3]: 70000 M⁻¹ s⁻¹
kcat/Km [4]: 100000 M⁻¹ s⁻¹
